Measured values published in PubChem BioAssay AID580 (SRMLSC, 2007).
Only a part is listed here, and it is no random draw. Activity calls are given as the source filed them.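 How the source made its calls: active means viability at or under a set limit in both replicates, limit being median viability minus 3 SD (cut at about 48% in these data, passing the limit was not always enough); inconclusive means at or under the limit in just one replicate; inactive means at or above the limit in both replicates.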

Assay: H69AR cell proliferation blockers – human, duplicate replicates, primary screen (AID 580);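 further: 100% = mean luminescence of untreated wells and 0% = no signal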
Conditions: H69AR lung tumor cells viability, ATP luminescence, 72 h; at 10 µM; hits give low values

Compound | viability
Fc1ccccc1NC1CCN(Cc2ccccc2)CC1 | inactive: 85.8%
